Measured values reported in patent publication US20200123104A1, “PHARMACEUTICAL AGENT THAT BINDS THE P2X7 RECEPTOR” (Indiana University Research and Technology Corporation, priority 2017, published 2020).

By UniProt entry, the sequences of proteins in these tests, tags left out. Where a name states a change or a piece, a line headed by the entry shows the natural chain unless it says otherwise.
UniProt Q99572: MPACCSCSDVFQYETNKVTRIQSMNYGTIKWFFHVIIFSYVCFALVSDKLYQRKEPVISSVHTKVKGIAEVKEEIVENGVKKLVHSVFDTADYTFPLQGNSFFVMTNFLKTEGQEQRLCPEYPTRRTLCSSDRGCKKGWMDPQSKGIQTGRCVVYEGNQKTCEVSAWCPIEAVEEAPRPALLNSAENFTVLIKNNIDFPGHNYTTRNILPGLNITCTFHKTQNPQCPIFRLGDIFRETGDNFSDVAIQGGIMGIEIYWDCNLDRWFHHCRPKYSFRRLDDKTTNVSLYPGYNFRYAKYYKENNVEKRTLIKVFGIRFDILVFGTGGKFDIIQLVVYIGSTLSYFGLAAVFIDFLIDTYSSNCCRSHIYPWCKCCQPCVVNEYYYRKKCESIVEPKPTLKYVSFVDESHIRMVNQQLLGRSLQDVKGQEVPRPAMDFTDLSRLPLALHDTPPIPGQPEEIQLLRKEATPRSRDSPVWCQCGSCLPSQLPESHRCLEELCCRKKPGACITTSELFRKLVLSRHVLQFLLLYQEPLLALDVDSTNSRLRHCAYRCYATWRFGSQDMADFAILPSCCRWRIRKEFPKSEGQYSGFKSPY

Biological target: P2X7 receptor (Homo sapiens, UniProt Q99572)
Assay: Competitive binding with [11C]GSK1482160 as reference tracer, membrane homogenate of HEK cells transfected with the human P2X7 gene
Design: host or cells: HEK (human embryonic kidney) cells, membrane homogenate
Settings: HEK-hP2X7 membrane homogenate, [11C]GSK1482160 reference tracer

IC50: 7.17 nM | Ki: 4.31 ± 0.92 nM
SMILES: O=C(NCc1cccc(C(F)(F)F)c1Cl)[C@@H]1CCC(=O)N1CCF [IUR-1601, (S)—N-(2-chloro-3-(trifluoromethyl)benzyl)-1-(2-fluoroethyl)-5-oxopyrrolidine-2-carboxamide]
